Test results as given in ChEMBL document CHEMBL4257227, “Deubiquitinase inhibitors and methods for use of the same” (2016).

Protein sequences, listed by entry. Tags and fused reporters are not part of them.
UniProt Q93009, whole entry, looked up: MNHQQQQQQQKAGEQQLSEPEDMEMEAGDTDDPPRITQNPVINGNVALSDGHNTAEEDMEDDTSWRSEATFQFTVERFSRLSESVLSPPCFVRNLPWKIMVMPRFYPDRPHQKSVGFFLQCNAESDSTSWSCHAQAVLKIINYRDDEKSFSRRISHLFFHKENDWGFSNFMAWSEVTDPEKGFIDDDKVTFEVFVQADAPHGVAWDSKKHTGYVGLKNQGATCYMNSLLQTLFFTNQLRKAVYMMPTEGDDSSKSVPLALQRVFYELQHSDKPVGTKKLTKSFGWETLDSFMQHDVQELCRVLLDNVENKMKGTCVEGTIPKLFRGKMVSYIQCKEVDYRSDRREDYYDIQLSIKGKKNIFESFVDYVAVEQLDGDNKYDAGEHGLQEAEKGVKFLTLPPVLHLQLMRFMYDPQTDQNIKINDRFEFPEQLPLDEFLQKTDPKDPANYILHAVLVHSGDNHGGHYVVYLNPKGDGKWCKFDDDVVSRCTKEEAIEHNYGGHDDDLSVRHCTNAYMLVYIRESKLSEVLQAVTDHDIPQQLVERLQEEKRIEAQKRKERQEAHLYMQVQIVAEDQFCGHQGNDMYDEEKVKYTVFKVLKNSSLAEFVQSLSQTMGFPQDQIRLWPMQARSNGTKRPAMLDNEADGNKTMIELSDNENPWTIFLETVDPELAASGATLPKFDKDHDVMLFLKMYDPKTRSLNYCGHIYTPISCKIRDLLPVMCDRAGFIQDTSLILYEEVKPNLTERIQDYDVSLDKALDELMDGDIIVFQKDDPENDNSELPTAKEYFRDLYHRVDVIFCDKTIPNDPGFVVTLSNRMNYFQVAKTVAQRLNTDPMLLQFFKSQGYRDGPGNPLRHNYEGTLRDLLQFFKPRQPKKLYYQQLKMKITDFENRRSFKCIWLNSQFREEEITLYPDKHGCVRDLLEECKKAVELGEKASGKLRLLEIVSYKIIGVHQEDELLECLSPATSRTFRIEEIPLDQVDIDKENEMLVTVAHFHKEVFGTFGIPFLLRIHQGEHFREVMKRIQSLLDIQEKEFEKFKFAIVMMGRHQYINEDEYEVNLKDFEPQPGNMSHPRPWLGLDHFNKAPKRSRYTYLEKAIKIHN

Legend:
Format in all cases: cell-based
[1] = target: Ubiquitin carboxyl-terminal hydrolase 7 (Homo sapiens) (UniProt Q93009); experiment: Inhibition of USP7 in human SK-MEL-28 cells
[2] = target: T1, Ubiquitin carboxyl-terminal hydrolase 5 (Homo sapiens) (UniProt P45974); experiment: Inhibition of USP5 in human SK-MEL-28 cells by direct immunoblotting method
T1 sequence (whole entry): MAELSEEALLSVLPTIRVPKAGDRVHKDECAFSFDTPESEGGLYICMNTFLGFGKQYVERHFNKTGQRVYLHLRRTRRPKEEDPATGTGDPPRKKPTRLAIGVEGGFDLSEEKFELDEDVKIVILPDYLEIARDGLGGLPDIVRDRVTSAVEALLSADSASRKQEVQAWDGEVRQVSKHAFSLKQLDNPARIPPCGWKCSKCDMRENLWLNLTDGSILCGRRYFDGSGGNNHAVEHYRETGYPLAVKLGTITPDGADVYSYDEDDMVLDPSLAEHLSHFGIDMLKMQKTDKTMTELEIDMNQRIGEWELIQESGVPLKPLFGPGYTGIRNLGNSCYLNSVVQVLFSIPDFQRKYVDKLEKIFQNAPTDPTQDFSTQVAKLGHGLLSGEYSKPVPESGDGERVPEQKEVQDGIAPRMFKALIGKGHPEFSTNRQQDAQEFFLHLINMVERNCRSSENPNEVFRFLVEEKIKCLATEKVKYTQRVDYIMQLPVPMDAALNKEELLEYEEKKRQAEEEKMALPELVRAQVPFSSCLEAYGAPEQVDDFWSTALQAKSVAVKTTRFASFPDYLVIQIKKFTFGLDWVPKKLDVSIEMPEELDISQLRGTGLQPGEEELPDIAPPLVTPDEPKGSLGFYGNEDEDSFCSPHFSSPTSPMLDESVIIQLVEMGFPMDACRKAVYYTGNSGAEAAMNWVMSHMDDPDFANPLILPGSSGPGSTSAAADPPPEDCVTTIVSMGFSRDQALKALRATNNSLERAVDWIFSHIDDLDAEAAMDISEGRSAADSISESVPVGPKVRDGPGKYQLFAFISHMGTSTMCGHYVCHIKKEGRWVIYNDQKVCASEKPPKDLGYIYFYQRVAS

[3] = target: T1, Ubiquitin carboxyl-terminal hydrolase 5 (Homo sapiens); experiment: Inhibition of USP5 in human A375 cells by direct immunoblotting method
[4] = target: Ubiquitin carboxyl-terminal hydrolase 7 (Homo sapiens) (UniProt Q93009); experiment: Inhibition of USP7 in human A375 cells
[5] = target: T1, Ubiquitin carboxyl-terminal hydrolase 5 (Homo sapiens); experiment: Inhibition of USP5 in human SK-MEL-28 cells by LC/MS/MS analysis
[6] = target: T1, Ubiquitin carboxyl-terminal hydrolase 5 (Homo sapiens); experiment: Inhibition of USP5 in human A375 cells by LC/MS/MS analysis

inhibition [1]: inactive
inhibition [2]: Active
inhibition [3]: Active
inhibition [4]: inactive
inhibition [5]: Active
inhibition [6]: Active
SMILES: CCCS(=O)(=O)Nc1ccc(F)c(C(=O)c2c[nH]c3ncc(-c4ccc(Cl)cc4)cc23)c1F [VEMURAFENIB]

Activity calls are given as the source filed them. The calls are words filed in the database; no cut-off is given here.
